Here are results for 3 compounds from PubChem BioAssay AID729 (The Scripps Research Institute Molecular Screening Center, 2007).

Amino acid sequences for entries named in this document (tags omitted).
UniProt O95136, whole entry: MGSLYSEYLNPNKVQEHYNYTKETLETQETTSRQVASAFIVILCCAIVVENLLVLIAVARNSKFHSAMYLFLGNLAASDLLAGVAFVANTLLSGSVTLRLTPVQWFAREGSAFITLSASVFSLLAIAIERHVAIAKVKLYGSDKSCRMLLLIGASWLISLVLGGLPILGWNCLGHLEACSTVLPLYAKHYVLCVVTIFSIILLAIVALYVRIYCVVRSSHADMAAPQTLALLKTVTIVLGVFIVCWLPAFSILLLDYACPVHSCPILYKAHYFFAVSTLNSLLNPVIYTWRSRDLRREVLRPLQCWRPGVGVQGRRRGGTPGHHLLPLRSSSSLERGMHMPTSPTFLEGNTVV

The entries are a selection whose mix differs from that of the whole data set. Some results for these compounds are left out of this collection, so the calls shown say nothing about other tests. Active and inactive are the calls of the source. No stated cut-off is given here; in the data, active means activation above about 16%; inactive means the rest.

For the assay, the target named is Sphingosine 1-phosphate receptor 2 (Homo sapiens) (UniProt O95136). As to the kind of experiment: activation of human S1P2 receptor – cell-based, primary screen (AID 729).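 Further: 0% = vehicle low control and 100% = maximal reference agonist.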 The conditions noted are these: S1P2-expressing cell line, agonist reporter read-out; at 4.5 µM; active compounds read high.
Regarding `CC(C)N1C(=O)CC2(CCN(CCOC(=O)C(O)(c3ccccc3)c3ccccc3)CC2)C1=O`, the activation was inactive: -3.02%.

Take `CN(C)c1cccc(C(=O)NCC2(N(C)C)CCCCC2)c1`: the activation was inactive: -1.2%.

Consider `O=C(OC1CN2CCC1CC2)C(CO)(c1ccccc1)c1ccccc1` (stereo not drawn), for which the activation is inactive: -7.41%.
